Read-outs that look alike come from different tables or passages of the source.
Key:
[1] = target: LIMK1(h) (Homo sapiens, UniProt P53667); assay: LIMK1 kinase assay (Eurofins Panlabs, radiometric); type: biochemical; design: purchased Eurofins Panlabs Inc. (contract assay service)
[2] = target: LIMK2(h) (Homo sapiens, UniProt P53671); assay: biochemical
From the text: (specific activity and concentration as required). The reaction is initiated by the addition of the Mg/ATP mix.

Chains of the proteins cited; added tags and fusions are not shown. Lines headed by an entry give the natural chain unless they say otherwise; changes in a name come on top.
UniProt P53667: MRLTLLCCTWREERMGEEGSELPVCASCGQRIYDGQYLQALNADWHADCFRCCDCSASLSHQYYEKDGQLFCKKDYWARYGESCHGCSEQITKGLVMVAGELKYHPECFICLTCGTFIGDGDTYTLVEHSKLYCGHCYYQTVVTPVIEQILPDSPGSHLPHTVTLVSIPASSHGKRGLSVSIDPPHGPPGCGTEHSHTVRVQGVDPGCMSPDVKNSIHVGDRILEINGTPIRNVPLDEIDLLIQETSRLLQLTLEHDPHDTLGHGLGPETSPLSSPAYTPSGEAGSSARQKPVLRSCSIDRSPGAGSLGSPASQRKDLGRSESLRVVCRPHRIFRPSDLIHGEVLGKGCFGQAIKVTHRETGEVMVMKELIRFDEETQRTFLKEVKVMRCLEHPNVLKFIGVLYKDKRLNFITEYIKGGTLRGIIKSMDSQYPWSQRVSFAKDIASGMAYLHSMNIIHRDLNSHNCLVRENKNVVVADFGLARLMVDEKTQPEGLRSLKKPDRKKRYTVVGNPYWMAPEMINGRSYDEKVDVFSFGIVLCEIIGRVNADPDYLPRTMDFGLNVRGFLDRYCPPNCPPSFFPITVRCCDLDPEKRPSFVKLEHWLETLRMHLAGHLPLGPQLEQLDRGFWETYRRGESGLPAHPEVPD
UniProt P53671: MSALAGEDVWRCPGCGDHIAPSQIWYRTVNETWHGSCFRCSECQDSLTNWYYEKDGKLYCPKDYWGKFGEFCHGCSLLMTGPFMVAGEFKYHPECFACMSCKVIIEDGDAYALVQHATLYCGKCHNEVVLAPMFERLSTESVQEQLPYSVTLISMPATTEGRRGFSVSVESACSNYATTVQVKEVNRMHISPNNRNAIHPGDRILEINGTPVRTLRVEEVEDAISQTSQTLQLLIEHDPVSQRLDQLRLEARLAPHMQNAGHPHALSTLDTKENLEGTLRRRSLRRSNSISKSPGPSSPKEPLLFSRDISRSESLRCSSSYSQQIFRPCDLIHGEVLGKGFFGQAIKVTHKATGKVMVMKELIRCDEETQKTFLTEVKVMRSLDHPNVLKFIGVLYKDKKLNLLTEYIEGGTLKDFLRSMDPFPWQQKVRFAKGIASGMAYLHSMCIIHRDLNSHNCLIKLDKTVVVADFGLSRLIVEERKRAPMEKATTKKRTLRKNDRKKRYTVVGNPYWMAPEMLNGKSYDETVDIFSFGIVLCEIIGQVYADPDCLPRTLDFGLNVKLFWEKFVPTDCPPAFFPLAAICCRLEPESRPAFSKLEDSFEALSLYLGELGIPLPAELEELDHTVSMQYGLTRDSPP

| SMILES | IC50 ([1]; 15 μM ATP, Table 8, read-out: IC50 LIMK1) [µM] | IC50 [2] [µM] | IC50 [1] [µM] |
| --- | --- | --- | --- |
| CNC(=O)Cc1nc(-c2cccc(NS(=O)(=O)c3c(F)cccc3F)c2F)c(-c2ccnc(Nc3ccccc3)n2)s1 [9 (Na)] | < 0.01 |  |  |
| CNC(=O)Cc1nc(-c2cccc(NS(=O)(=O)c3c(F)cccc3F)c2F)c(-c2ccnc(Nc3ccccc3)n2)s1 [Compound 9, 2-(4-(3-(2,6-difluorophenylsulfonamido)-2-fluorophenyl)-5-(2-(phenylamino)pyrimidin-4-yl)thiazol-2-yl)-N-methylacetamide] |  | < 0.01 | < 0.01 |
